Molecular target: Novozym 435 (immobilized Candida Antarctica lipase B) (Moesziomyces antarcticus, UniProt P41365)
Assay: Enzymatic hydrolysis with Novozym 435 in toluene / pH 7 buffer, HPLC analysis
Details: ambient temperature
Procedure: Resveratrol tris(methyl carbonate) (100 mg; 0.249 mmol) was dissolved in 2 mL of toluene. 2 mL of pH 7 buffer was added followed by 100 mg of Novozym 435 (immobilized Candida Antarctica lipase B).
2 mL of pH 7 buffer was added followed by 100 mg of Novozym 435 (immobilized Candida Antarctica lipase B).
Resveratrol tripalmitate (100 mg; 0.11 mmol) was dissolved in 2 mL of toluene. 2 mL of pH 7 buffer was added followed by 100 mg of Novozym 435 (immobilized Candida Antarctica lipase B).
1 mL of pH 7 buffer was added followed by 100 mg of Novozym 435 (immobilized Candida Antarctica lipase B).
Hydroxytyrosol tris(methyl carbonate) (3, R=Me, 100 mg; 0.305 mmol) was dissolved in 2 mL of toluene. 2 mL of pH 7 buffer was added followed by 100 mg of Novozym 435 (immobilized Candida Antarctica lipase B).
Hydroxytyrosol trihexanoate containing 1.9% hydroxytyrosol by HPLC analysis (100 mg; 0.22 mmol) was dissolved in 2 mL of toluene. 2 mL of pH 7 buffer was added followed by 100 mg of Novozym 435 (immobilized Candida Antarctica lipase B).

Protein sequences, listed by entry. Tags and fused reporters are not part of them. Residues count along the entry.
UniProt P41365, 26-342: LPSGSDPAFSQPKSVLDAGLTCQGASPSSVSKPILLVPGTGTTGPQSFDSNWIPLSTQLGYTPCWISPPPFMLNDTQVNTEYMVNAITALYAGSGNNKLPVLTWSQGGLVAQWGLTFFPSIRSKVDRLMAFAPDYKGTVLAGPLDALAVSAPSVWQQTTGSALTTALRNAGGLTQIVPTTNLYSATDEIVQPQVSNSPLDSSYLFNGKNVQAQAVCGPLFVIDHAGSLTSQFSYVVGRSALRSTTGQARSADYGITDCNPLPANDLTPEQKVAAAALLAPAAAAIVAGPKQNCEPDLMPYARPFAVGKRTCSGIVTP

[1] = 1.5 h, equal volumes of both layers

Substance: 4-Hydroxybenzyl Alcohol bis(butyl carbonate)
- 4-hydroxybenzyl alcohol bis(butyl carbonate) remaining by HPLC analysis [1]: 41%
- 4-hydroxybenzyl alcohol mono(butyl carbonate), first of the two, by HPLC analysis [1]: 40%
- 4-hydroxybenzyl alcohol mono(butyl carbonate), second of the two, by HPLC analysis [1]: 14%
- 4-hydroxybenzyl alcohol by HPLC analysis (1.5 h, equal volumes of both layers, analysis stated inaccurate due to insolubility): 1.5%
- mono- and bis-carbonates by HPLC analysis (21 h): very little

Reference: patent publication US20120059056A1, “CARBONATE DERIVATIVES AS SKIN CARE” (EASTMAN CHEMICAL COMPANY, priority 2010, published 2012)
